From US12583836B2 (Anaxis Pharma Pty Ltd, priority 2020, dated 2026)
pKd: −log10 of the molar value.

Target: T1, MLKL (full length) (Homo sapiens, UniProt Q8NB16)
T1 construct: purchased DiscoverX (KINOMEscan service); host or cells: E. coli BL21-derived (T7 phage) or HEK293
T1 sequence (Q8NB16 1-471): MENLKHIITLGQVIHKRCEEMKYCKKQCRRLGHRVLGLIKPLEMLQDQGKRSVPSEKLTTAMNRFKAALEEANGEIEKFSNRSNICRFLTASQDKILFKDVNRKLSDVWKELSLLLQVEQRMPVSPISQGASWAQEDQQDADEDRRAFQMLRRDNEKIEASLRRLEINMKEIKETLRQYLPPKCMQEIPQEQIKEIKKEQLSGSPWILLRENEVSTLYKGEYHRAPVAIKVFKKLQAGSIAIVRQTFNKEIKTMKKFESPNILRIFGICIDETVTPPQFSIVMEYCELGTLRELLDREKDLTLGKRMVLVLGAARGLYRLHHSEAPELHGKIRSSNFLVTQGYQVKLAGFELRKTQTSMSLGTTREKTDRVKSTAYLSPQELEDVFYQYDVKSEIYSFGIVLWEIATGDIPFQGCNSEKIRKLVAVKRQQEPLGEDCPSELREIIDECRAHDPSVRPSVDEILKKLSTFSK
Test: KINOMEscan binding assay, MLKL
Details: equilibrium dissociation constant, class symbols

Structure (SMILES): NC(=O)c1c(-c2ccc(NS(=O)(=O)C3CCCCC3)cc2)n[nH]c1Nc1cnccn1 [Compound 74, 3-(4-(cyclohexanesulfonamido)phenyl)-5-(pyrazin-2-ylamino)-1H-pyrazole-4-carboxamide]
- pKd: 6.00 to 8.00

Structure (SMILES): CCS(=O)(=O)Nc1ccc(-c2n[nH]c(Nc3cnccn3)c2C(N)=O)cc1OCc1cccc(F)c1 [Compound 26, 3-(4-(ethylsulfonamido)-3-((3-fluorobenzyl)oxy)phenyl)-5-(pyrazin-2-ylamino)-1H-pyrazole-4-carboxamide]
- pKd: > 8.00

Structure (SMILES): CCS(=O)(=O)Nc1ccc(-c2n[nH]c(Nc3cnccn3)c2C(N)=O)cc1OCc1ccc(OC(F)(F)F)cc1 [Compound 215, 3-(4-(ethylsulfonamido)-3-((4-(trifluoromethoxy)benzyl)oxy)phenyl)-5-(pyrazin-2-ylamino)-1H-pyrazole-4-carboxamide]
- pKd: 6.00 to 8.00

Structure (SMILES): CCS(=O)(=O)Nc1ccc(-c2n[nH]c(Nc3cnccn3)c2C(N)=O)cc1OCc1cccc(Cl)c1 [Compound 41, 3-(3-((3-chlorobenzyl)oxy)-4-(ethylsulfonamido)phenyl)-5-(pyrazin-2-ylamino)-1H-pyrazole-4-carboxamide]
- pKd: > 8.00

Structure (SMILES): CCOc1cc(Nc2[nH]nc(-c3ccc(NS(=O)(=O)CC)cc3)c2C(N)=O)ccn1 [Compound 105, 5-((2-ethoxypyridin-4-yl)amino)-3-(4-(ethylsulfonamido)phenyl)-1H-pyrazole-4-carboxamide]
- pKd: > 8.00

Structure (SMILES): CCS(=O)(=O)Nc1ccc(-c2n[nH]c(Nc3ccccn3)c2C(N)=O)cc1OCc1ccc(F)cc1 [Compound 30, 3-(4-(ethylsulfonamido)-3-((4-fluorobenzyl)oxy)phenyl)-5-(pyridin-2-ylamino)-1H-pyrazole-4-carboxamide]
- pKd: > 8.00

Structure (SMILES): NC(=O)c1c(-c2ccc(NS(=O)(=O)CC(F)(F)F)c(OCc3ccc(F)cc3)c2)n[nH]c1Nc1cccc(C(F)F)n1 [Compound 173, 5-((6-(difluoromethyl)pyridine-2-yl)amino)-3-(3-((4-fluorobenzyl)oxy)-4-((2,2,2-trifluoroethyl)sulfonamido)phenyl)-1H-pyrazole-4-carboxamide]
- pKd: > 8.00

Structure (SMILES): CCS(=O)(=O)Nc1ccc(-c2n[nH]c(Nc3ccccn3)c2C(N)=O)cc1OCC(C)C [Compound 37, 3-(4-(ethylsulfonamido)-3-isobutoxyphenyl)-5-(pyridin-2-ylamino)-1H-pyrazole-4-carboxamide]
- pKd: 6.00 to 8.00

Structure (SMILES): COC[C@H](Oc1cc(-c2n[nH]c(Nc3cc(C)on3)c2C(N)=O)ccc1NS(=O)(=O)C(F)F)c1ccc(F)cc1 (single isomer, unassigned) [Compound 299]
- pKd: > 8.00

Structure (SMILES): CCS(=O)(=O)Nc1ccc(-c2n[nH]c(Nc3ccc(OC)nc3)c2C(N)=O)cc1 [Compound 115, 3-(4-(ethylsulfonamido)phenyl)-5-((6-methoxypyridin-3-yl)amino)-1H-pyrazole-4-carboxamide]
- pKd: > 8.00

Structure (SMILES): NC(=O)c1cccc(Nc2[nH]nc(-c3ccc(NS(=O)(=O)C(F)F)cc3)c2C(N)=O)n1 [Compound 257, 6-({4-carbamoyl-3-[4-(difluoromethanesulfonamido)phenyl]-1H-pyrazol-5-yl}amino)pyridine-2-carboxamide]
- pKd: > 8.00

Structure (SMILES): NC(=O)c1c(-c2ccc(NS(=O)(=O)Cc3ccc(Cl)c(Cl)c3)cc2)n[nH]c1Nc1cccc(C(F)(F)F)n1 [Compound 56, 3-(4-((3,4-dichlorophenyl)methylsulfonamido)phenyl)-5-((6-(trifluoromethyl)pyridin-2-yl)amino)-1H-pyrazole-4-carboxamide]
- pKd: 6.00 to 8.00

Structure (SMILES): COCCOc1cc(Nc2[nH]nc(-c3ccc(NS(=O)(=O)CCN(C)C)cc3)c2C(N)=O)ccn1 [Compound 116, 3-(4-((2-(dimethylamino)ethyl)sulfonamido)phenyl)-5-((2-(2-methoxyethoxy)pyridin-4-yl)amino)-1H-pyrazole-4-carboxamide]
- pKd: 6.00 to 8.00

Structure (SMILES): CCS(=O)(=O)Nc1ccc(-c2n[nH]c(Nc3cnccn3)c2C(N)=O)cc1OCc1cccc(C(F)(F)F)c1 [Compound 218, 3-(4-(ethylsulfonamido)-3-((3-(trifluoromethyl)benzyl)oxy)phenyl)-5-(pyrazin-2-ylamino)-1H-pyrazole-4-carboxamide]
- pKd: 6.00 to 8.00

Structure (SMILES): CCS(=O)(=O)Nc1ccc(-c2n[nH]c(Nc3cnc4cc(Cl)ccc4n3)c2C(N)=O)cc1 [Compound 65, 5-((6-chloroquinoxalin-2-yl)amino)-3-(4-(ethylsulfonamido)phenyl)-1H-pyrazole-4-carboxamide]
- pKd: 6.00 to 8.00

Structure (SMILES): NC(=O)c1c(-c2ccc(NS(=O)(=O)Cc3ccc(Cl)cc3)cc2)n[nH]c1Nc1cnccn1 [Compound 70, 3-(4-(((4-chlorophenyl)methyl)sulfonamido)phenyl)-5-(pyrazin-2-ylamino)-1H-pyrazole-4-carboxamide]
- pKd: > 8.00

Structure (SMILES): CCS(=O)(=O)Nc1ccc(-c2n[nH]c(Nc3ccccc3)c2C(N)=O)cc1 [Compound 124, 3-(4-(ethylsulfonamido)phenyl)-5-(phenylamino)-1H-pyrazole-4-carboxamide]
- pKd: > 8.00

Structure (SMILES): CCS(=O)(=O)Nc1ccc(-c2n[nH]c(Nc3cnccn3)c2C(N)=O)cc1OCC1CCN(C(C)=O)CC1 [Compound 7, 3-(3-((1-acetylpiperidin-4-yl)methoxy)-4-(ethylsulfonamido)phenyl)-5-(pyrazin-2-ylamino)-1H-pyrazole-4-carboxamide]
- pKd: 4.52 to 6.00

Structure (SMILES): NC(=O)c1c(-c2ccc(NS(=O)(=O)CCC(F)(F)F)c(OCc3ccc(F)cc3)c2)n[nH]c1Nc1cccc(C(F)(F)F)n1 [Compound 182, 3-(3-((4-fluorobenzyl)oxy)-4-((3,3,3-trifluoropropyl)sulfonamido)phenyl)-5-((6-(trifluoromethyl)pyridine-2-yl)amino)-1H-pyrazole-4-carboxamide]
- pKd: 6.00 to 8.00

Structure (SMILES): CCS(=O)(=O)Nc1ccc(-c2n[nH]c(Nc3ccc4ccc(Cl)cc4n3)c2C(N)=O)cc1OCc1ccc(F)cc1 [Compound 138, 5-((7-chloroquinolin-2-yl)amino)-3-(4-(ethylsulfonamido)-3-((4-fluorobenzyl)oxy)phenyl)-1H-pyrazole-4-carboxamide]
- pKd: 4.52 to 6.00

Structure (SMILES): C[C@H](Oc1cc(-c2n[nH]c(Nc3cnccn3)c2C(N)=O)ccc1NS(=O)(=O)CC(F)(F)F)c1ccc(F)cc1 [Compound 164, (S)-3-(3-(1-(4-fluorophenyl)ethoxy)-4-((2,2,2-trifluoroethyl)sulfonamido)phenyl)-5-(pyrazin-2-ylamino)-1H-pyrazole-4-carboxamide]
- pKd: > 8.00

Structure (SMILES): NC(=O)c1c(-c2ccc(NS(=O)(=O)Cc3ccccc3)cc2)n[nH]c1Nc1cnccn1 [Compound 77, 3-(4-((phenylmethyl)sulfonamido)phenyl)-5-(pyrazin-2-ylamino)-1H-pyrazole-4-carboxamide]
- pKd: 6.00 to 8.00

Structure (SMILES): CCS(=O)(=O)Nc1ccc(-c2n[nH]c(Nc3cnccn3)c2C(N)=O)cc1OC(C)(C)c1ccc(F)cc1 [Compound 228, 3-(4-ethanesulfonamido-3-{[2-(4-fluorophenyl)propan-2-yl]oxy}phenyl)-5-[(pyrazin-2-yl)amino]-1H-pyrazole-4-carboxamide]
- pKd: > 8.00

Structure (SMILES): NC(=O)c1c(-c2ccc(NS(=O)(=O)C3CC3)c(OCc3ccc(F)cc3)c2)n[nH]c1Nc1cnccn1 [Compound 169, 3-(4-(cyclopropanesulfonamido)-3-((4-fluorobenzyl)oxy)phenyl)-5-(pyrazin-2-ylamino)-1H-pyrazole-4-carboxamide]
- pKd: > 8.00
